For one data set, the target named is T1, RET (Homo sapiens, UniProt P07949).
T1 construct: purchased DiscoveRx
Description: KINOMEscan active-site competitive binding assay. The note with it: slash = two separate measurements.

By UniProt entry, the sequences of proteins in these tests, tags left out. Residues count along the entry.
UniProt P07949, 29-1114: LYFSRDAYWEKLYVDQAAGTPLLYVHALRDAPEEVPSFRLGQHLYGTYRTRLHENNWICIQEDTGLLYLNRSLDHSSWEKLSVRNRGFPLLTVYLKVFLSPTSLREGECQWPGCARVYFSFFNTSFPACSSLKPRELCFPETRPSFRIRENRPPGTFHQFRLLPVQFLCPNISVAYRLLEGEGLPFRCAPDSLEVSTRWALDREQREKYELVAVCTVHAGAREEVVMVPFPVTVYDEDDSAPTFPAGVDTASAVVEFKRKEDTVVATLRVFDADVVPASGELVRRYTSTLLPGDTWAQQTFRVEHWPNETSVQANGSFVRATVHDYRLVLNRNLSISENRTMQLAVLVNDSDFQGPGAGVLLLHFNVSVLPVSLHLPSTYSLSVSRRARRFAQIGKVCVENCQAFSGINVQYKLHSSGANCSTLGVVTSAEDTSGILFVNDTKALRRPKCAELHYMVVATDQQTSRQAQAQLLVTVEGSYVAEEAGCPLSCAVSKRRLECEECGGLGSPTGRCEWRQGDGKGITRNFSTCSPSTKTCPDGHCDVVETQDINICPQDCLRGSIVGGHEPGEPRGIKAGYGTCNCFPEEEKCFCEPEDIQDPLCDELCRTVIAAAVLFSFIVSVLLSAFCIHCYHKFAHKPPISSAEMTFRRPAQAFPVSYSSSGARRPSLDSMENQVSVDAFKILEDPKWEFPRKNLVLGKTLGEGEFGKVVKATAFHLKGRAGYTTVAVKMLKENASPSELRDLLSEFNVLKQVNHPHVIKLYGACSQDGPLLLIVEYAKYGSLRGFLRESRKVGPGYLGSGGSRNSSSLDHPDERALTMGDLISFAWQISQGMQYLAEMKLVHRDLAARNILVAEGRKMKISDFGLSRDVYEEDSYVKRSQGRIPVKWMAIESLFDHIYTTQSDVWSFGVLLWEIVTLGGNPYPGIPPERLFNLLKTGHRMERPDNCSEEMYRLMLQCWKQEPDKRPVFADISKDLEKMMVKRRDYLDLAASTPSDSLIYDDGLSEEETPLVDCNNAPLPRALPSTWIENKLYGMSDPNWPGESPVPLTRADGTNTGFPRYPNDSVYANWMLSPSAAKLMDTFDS
UniProt P07949, 29-1114 M918T: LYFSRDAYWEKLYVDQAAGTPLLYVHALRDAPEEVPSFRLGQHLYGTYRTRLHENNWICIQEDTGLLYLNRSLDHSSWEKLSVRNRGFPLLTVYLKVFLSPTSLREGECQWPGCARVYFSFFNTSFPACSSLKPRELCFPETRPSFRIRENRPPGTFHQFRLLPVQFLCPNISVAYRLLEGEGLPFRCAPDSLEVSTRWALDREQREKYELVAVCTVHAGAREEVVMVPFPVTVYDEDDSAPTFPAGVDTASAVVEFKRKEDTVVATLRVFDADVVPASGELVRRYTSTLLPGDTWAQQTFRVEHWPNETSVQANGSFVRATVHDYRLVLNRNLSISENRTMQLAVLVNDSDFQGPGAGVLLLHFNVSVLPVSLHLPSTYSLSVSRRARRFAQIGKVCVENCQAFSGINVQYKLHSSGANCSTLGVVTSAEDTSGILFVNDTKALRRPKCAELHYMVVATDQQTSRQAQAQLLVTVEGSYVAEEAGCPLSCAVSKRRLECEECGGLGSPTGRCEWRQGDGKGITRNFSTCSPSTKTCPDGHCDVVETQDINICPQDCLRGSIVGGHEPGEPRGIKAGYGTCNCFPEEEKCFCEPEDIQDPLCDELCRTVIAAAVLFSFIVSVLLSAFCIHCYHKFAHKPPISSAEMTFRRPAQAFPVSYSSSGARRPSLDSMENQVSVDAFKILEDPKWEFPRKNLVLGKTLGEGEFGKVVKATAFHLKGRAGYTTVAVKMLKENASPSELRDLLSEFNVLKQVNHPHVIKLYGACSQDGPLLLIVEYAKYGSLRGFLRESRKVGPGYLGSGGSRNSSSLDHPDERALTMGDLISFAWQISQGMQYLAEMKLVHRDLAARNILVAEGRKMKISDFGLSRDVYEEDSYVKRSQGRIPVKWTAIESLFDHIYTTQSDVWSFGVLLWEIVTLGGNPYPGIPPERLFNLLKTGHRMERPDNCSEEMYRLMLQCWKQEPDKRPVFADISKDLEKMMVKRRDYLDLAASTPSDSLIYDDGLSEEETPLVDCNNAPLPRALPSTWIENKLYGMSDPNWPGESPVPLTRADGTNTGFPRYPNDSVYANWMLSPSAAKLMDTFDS
UniProt P07949, 29-1114 V804L: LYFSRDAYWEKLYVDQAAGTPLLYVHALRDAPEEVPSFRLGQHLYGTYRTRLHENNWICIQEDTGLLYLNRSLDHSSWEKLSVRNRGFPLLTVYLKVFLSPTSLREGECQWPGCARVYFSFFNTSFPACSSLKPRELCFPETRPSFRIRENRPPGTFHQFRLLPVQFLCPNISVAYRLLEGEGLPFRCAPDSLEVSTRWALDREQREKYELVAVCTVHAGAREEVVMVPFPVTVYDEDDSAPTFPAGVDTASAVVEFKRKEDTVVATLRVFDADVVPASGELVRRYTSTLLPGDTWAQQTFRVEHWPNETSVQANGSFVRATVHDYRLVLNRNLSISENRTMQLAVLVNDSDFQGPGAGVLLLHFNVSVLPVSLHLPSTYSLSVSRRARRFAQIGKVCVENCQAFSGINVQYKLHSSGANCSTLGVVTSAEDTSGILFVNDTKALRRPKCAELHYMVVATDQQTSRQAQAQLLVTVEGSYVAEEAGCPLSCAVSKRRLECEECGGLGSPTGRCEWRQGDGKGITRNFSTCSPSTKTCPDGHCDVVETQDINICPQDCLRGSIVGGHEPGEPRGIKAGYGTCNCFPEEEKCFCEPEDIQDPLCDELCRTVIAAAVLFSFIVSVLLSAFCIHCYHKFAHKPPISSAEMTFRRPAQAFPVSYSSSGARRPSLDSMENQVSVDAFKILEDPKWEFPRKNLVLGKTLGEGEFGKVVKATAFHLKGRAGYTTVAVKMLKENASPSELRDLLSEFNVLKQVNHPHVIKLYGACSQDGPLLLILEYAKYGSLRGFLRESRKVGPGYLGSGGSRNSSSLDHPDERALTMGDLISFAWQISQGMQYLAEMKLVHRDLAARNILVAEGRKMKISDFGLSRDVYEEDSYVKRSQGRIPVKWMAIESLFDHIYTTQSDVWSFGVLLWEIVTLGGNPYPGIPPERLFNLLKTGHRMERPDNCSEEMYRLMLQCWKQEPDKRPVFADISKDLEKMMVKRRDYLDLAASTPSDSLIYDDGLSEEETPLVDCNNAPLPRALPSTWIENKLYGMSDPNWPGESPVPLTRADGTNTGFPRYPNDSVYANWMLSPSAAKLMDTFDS
UniProt P07949, 29-1114 V804M: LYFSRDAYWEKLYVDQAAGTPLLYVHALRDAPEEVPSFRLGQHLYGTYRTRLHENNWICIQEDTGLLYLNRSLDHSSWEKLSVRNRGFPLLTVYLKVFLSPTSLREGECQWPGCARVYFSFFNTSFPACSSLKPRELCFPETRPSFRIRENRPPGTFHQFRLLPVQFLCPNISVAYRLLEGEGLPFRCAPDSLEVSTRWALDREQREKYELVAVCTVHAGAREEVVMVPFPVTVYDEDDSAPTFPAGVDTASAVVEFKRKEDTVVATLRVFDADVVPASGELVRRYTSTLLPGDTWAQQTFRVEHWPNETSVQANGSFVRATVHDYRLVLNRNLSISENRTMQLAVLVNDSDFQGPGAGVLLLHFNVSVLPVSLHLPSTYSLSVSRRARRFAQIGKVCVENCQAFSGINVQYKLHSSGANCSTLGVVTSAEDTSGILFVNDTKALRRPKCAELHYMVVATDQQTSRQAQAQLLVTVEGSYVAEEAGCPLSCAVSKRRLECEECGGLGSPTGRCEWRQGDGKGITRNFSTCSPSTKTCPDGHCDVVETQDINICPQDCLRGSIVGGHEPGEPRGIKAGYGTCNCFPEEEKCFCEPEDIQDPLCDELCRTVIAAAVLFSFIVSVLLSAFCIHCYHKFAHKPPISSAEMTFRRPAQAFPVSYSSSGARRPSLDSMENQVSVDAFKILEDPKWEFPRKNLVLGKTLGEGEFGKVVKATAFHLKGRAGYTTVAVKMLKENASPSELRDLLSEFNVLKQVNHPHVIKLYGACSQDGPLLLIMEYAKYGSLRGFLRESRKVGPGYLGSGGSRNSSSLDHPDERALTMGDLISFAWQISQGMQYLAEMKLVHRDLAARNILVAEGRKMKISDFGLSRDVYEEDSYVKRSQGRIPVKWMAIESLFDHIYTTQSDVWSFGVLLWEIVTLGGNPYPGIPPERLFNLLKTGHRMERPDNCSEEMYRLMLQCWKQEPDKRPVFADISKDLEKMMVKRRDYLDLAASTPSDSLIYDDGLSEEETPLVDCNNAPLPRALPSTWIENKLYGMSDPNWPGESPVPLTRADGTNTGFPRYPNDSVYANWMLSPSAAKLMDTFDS

The target of the next data set is T2, RET^M918T (Homo sapiens, UniProt P07949, M918T).
T2 construct: purchased DiscoveRx (KINOMEscan service)
Description: KINOMEscan active-site competitive binding assay.

Another data set concerns the target T3, RET^V804L (Homo sapiens, UniProt P07949, V804L).
T3 construct: purchased DiscoveRx (KINOMEscan service)
Description: KINOMEscan active-site competitive binding assay.

The target in another data set is T4, RET^V804M (Homo sapiens, UniProt P07949, V804M).
T4 construct: purchased DiscoveRx (KINOMEscan service)
Description: KINOMEscan active-site competitive binding assay.

Data set [1] can be described thus: Plasma pharmacokinetics in female NMRI Foxn1 nu/nu mice. Particulars: after regorafenib 10 mg/kg/day oral for 5 days; total = sum of molar concentrations of regorafenib, M‐2, M‐5. On the procedure: Analyte concentrations were measured by high‐performance liquid chromatography using a Hewlett Packard 1100 Series system (Palo Alto, CA), with tandem mass spectrometric detection using an Applied Biosystems API 4000 (Thermo Fisher Scientific, Waltham, MA). The assay was validated according to the applicable guideline on method validation 11. The lower limit of quantitation for the assay was 2.00 μg/L, with a linear range of 2.00–20,000 μg/L using a sample volume of 100 μL.
Pharmacokinetic studies were performed in female NMRI Foxn1 nu/nu mice, supplied by Harlan‐Winkelmann GmbH (Borchen, Germany). […] Pharmacokinetic parameters, namely the AUC(0–24)ss and C max, were calculated from plasma concentrations using a noncompartmental analysis.

SMILES strings stand for the structures. Where “and” joins values, the source holds several entries; their conditions need not be identical. Equal values may be shown once.

As to `CNC(=O)c1cc(Oc2ccc(NC(=O)Nc3ccc(Cl)c(C(F)(F)F)c3)c(F)c2)ccn1` [Regorafenib, reference compound], the dissociation constant Kd on RET was 5.2 nM and 7.7 nM; on RET^M918T, 7.1 nM; at RET^V804L, 19 nM; on RET^V804M, 23 nM. For the same molecule, the “AUC (% of total)” value in data set [1] is 83%.

The Kd is the constant that tells how readily two partners part at equilibrium.

These data come from publication PMC5119973 (Cancer Medicine, 2016).
